{
  "source": "patent US7973079B2",
  "about": "“Methods and compounds for treating retinol-related diseases” (Revision Therapeutics, Inc., priority 2007, dated 2011)",
  "test_system": "cytochrome P450 isozymes",
  "experiment": "Cytochrome P450 inhibition profile (panel of six isozymes)",
  "format": "in vitro ADME",
  "details": "compound at 2 μM, FIG. 8",
  "protocol": "FIG. 8. Cytochrome P450 inhibition profile for test compounds and fenretinide (HPR). A panel of six cytochrome P450 isozymes were screened to explore potential toxicity associated with the test compounds (test compound 2 having the chemical name 3-((2-tert-butyl-4-chlorophenoxy)methyl)cyclohexanecarboxylic acid and test compound 3 having the chemical name 3-((2-tert-butyl-4-chlorophenoxy)methyl)cyclopentanecarboxylic acid) and HPR (present at 2 μM in the assays).",
  "data": [
    {"smiles": "CC(C)(C)c1cc(Cl)ccc1OCC1CCCC(C(=O)O)C1", "note": "(stereo not shown) [3-((2-tert-butyl-4-chlorophenoxy)methyl)cyclohexanecarboxylic acid]", "values": [
      {"measurement": "inhibition of the cytochrome P450 isozymes", "value": "very little inhibition"}
    ]}
  ]
}
